Earlier results as cited in patent publication US20060089824A1, “Methods and systems for drug screening and computational modeling” (priority 2002, published 2006).

Details: reasonable value, therapeutic level; from Tran et al. 2000; cited from earlier work

For `Cc1cc2c(s1)Nc1ccccc1N=C2N1CCN(C)CC1` [olanzapine], the “free concentration of olanzapine (corrected for binding to plasma proteins)” value is listed as 27 nM.
